These are literature values, as cited in patent publication US20240165135A1, “COMPOSITIONS AND METHODS FOR THE TREATMENT OF CANCER” (The State of Israel, Ministry of Agriculture & Rural …, priority 2021, published 2024).

Chains of the proteins cited; added tags and fusions are not shown.
UniProt P34972, whole entry: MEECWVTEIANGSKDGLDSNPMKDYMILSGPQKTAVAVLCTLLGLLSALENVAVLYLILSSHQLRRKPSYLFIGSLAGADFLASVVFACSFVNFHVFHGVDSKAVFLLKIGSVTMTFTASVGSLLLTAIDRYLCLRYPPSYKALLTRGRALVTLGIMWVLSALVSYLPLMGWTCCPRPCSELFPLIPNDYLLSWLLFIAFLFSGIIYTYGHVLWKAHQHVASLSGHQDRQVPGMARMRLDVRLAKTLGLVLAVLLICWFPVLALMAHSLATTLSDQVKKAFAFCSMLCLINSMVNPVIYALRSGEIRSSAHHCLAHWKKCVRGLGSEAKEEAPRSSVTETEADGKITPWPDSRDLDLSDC

Molecules are shown by their SMILES.

In the series the target is CB2 receptor (Homo sapiens, UniProt P34972). The note with it: from reference [46]; read-out: EC50 as IA of the CB2 receptor; cited from earlier work.

In general, EC50 refers to the midpoint of the concentration-response curve. Turning to `Cc1c(C(=O)NN2CCCCC2)nn(-c2ccc(Cl)cc2Cl)c1-c1ccc(I)cc1` [AM251], the EC50 is 650 ± 30 nM.
